These results are taken from patent US20050208598A1 (priority 2004, published 2005).

Amino acid sequences for entries named in this document (tags omitted). Residues count along the entry.
UniProt P22629, 25-183, species assumed: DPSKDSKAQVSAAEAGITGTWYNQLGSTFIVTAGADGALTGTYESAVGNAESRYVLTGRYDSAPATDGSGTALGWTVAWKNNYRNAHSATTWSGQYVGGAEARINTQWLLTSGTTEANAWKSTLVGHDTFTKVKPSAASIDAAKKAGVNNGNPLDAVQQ

Structures are written as SMILES.

The target of the assay is streptavidin (Streptomyces avidinii, UniProt P22629). The settings on record: relative to avidin.

With `O=C(O)c1ccccc1N=Nc1ccc(O)cc1` [HABA, 2-(4-hydroxyphenylazo)benzoic acid], the “binding affinity for streptavidin, fold lower than for avidin” value is “about 20 fold”.
